The numbers were not newly measured in article PMC6295868, “Hybrid Inhibitors of Malarial Dihydrofolate Reductase with Dual Binding Modes That Can Forestall Resistance” (ACS Medicinal Chemistry Letters, 2018), which cites them from elsewhere.

The data set concerns P. falciparum TM4/8.2 (NCSI). Particulars: ± SD; cited from earlier work.

As to `CCc1nc(N)nc(N)c1-c1ccc(Cl)cc1` [Pyr, pyrimethamine], the half-inhibitory concentration (IC50) was 80 ± 10 nM.

As a reminder, the IC50 is the point on the concentration scale where inhibition reaches its midpoint.
